According to ChEMBL document CHEMBL1133625, “Crystal structures of human factor Xa complexed with potent inhibitors” (J Med Chem, 2000):

Target: T1, Trypsin II (Bos taurus, UniProt Q29463)
T1 sequence (Q29463 whole entry): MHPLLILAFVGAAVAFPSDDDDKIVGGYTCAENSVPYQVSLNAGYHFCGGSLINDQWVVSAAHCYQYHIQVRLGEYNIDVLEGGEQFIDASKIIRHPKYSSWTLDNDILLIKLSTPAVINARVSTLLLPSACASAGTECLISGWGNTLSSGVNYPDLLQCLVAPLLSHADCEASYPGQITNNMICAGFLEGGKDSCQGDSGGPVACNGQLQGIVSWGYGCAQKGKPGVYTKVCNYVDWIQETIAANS
Experiment: Binding affinity on bovine pancreatic trypsin enzyme

N=C(N)c1ccc(O)c(CN2CC[C@H](NS(=O)(=O)c3cc4ncccc4s3)C2=O)c1
Ki: 1000 nM
